From PMC8928223

Amino acid sequences for entries named in this document (tags omitted). Residues count along the entry.
UniProt Q08345, 19-913: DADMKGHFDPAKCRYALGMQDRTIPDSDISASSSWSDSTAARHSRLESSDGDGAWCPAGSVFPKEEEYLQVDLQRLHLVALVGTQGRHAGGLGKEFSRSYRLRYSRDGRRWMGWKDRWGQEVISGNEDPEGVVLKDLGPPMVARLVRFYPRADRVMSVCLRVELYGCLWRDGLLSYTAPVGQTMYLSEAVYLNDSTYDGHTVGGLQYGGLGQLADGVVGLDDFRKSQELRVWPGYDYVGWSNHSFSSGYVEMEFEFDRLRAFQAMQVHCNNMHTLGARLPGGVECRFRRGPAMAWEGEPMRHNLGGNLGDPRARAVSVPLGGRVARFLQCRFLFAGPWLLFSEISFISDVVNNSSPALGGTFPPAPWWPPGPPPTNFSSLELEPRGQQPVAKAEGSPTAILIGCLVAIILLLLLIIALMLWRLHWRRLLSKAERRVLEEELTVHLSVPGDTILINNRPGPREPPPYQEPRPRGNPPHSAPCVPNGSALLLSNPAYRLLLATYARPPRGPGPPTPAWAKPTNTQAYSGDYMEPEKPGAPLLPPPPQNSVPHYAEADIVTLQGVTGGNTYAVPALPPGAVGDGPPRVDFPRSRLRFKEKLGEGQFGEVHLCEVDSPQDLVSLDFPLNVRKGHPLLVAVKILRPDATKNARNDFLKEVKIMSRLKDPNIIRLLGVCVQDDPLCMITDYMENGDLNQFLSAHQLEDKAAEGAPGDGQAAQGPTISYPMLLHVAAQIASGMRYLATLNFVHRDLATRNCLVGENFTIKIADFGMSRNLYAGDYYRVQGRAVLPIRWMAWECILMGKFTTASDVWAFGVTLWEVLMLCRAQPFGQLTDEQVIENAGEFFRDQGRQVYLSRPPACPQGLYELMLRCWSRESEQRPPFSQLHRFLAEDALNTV

Target: DDR1b-Turbo containing a Flag tag (human) (UniProt Q08345)
Assay: proximity labelling; BioID with turbo-Flag fused to DDR1 in HEK cells plated on collagen I (30 µg/ml) for 1-3 h with 50 µM biotin; streptavidin-agarose pull-down of the lysate and Western blot

Question: Which fold increase in biotinylated talin against DDR1a-turbo cells does the source give for talin, Q9Y490 1-2541 here?
Answer: The fold increase in biotinylated talin against DDR1a-turbo cells was 2.29 fold.
